Experimental data reported in BindingDB's records for doi:10.7270/Q2474894 (Burnham Center for Chemical Genomics, 2009).

Molecular target: T1, Tyrosine-protein phosphatase non-receptor type 7 (Homo sapiens, UniProt P35236)
T1 sequence (P35236 whole entry): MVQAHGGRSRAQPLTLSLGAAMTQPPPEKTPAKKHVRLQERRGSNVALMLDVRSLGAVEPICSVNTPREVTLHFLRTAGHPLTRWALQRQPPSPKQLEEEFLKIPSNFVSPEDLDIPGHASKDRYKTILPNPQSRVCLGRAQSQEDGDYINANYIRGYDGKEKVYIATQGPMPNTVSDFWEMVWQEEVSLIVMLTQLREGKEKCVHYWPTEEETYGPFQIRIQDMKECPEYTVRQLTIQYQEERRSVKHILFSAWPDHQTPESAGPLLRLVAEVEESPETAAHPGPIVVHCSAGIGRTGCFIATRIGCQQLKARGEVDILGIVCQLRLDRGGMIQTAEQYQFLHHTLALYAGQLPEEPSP

Work on O=S(=O)(O)c1ccc2cc(N=Nc3cc(S(=O)(=O)O)c4cccnc4c3O)ccc2c1 [disodium;(7E)-8-oxidanylidene-7-[(6-sulfonatonaphthalen-2-yl)hydrazinylidene]quinoline-5-sulfonate] yielded an IC50 of 2.67 µM.
